For test [1], the target named is T1, Human NPY5ΔY1IC3 chimera (human, UniProt Q15761 1-445).
T1 construct: Expressed in Sf9 cells; assayed in purified membranes; also called hNPY5ΔY1IC3; NPY5 Y1IC3
T1 chain: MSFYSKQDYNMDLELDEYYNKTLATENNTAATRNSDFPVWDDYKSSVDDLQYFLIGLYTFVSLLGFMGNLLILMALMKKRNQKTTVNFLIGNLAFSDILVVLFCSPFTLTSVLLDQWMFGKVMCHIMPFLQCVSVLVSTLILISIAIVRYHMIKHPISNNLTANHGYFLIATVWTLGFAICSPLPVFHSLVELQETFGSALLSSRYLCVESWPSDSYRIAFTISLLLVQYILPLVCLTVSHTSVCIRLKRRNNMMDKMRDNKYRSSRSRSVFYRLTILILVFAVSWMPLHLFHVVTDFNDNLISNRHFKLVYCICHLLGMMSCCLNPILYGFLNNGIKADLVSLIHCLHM
The experiment in a line: displacement of 0.050 nM [125I]PYY (porcine) from Sf9 membranes, filtration.

By UniProt entry, the sequences of proteins in these tests, tags left out. Where a name states a change or a piece, a line headed by the entry shows the natural chain unless it says otherwise.
UniProt Q15761: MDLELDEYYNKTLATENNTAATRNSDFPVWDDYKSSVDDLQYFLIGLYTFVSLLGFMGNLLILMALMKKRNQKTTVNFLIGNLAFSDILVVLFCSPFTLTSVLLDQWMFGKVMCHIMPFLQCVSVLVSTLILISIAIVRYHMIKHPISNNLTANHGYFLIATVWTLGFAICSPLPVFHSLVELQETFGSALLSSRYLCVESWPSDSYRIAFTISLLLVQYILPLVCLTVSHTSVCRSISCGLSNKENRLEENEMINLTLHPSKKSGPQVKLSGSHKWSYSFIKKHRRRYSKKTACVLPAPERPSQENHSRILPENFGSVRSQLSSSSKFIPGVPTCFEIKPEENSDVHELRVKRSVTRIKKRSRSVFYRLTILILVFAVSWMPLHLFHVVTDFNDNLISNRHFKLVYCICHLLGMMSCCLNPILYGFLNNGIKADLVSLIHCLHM

Test [2] has as its target T2, Human NPY5ΔY1CT chimera (human).
T2 construct: Human NPY5 with its C-terminal intracellular domain replaced by that of human Y1; Expressed in Sf9 cells; assayed in purified membranes
T2 chain: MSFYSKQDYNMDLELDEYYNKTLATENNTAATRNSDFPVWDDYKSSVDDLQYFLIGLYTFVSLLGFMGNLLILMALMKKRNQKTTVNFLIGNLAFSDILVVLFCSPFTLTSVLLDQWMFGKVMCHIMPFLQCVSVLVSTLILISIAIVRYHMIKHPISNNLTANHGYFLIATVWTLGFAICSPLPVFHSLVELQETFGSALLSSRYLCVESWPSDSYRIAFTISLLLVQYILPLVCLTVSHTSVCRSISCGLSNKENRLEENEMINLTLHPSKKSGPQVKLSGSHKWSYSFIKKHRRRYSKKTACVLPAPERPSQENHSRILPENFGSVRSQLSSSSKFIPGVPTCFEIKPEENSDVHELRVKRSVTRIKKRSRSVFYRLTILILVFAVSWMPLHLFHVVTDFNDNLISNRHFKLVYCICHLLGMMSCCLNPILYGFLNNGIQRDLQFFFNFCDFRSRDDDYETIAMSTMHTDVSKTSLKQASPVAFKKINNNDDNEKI
The test is described as above.

Consider PAEDMARYYSALRHYINLITRQRY (peptide, UniProt P01303 41-64, looked up, range 13-36; also called HNPY 13-36) [human NPY 13-36], for which the Ki in test [1] came out at 10.3 nM; in test [2], 23.4 nM.

(Values after patent US20050019869A1, “Chimeric neuropeptide Y receptors” (priority 2000, published 2005).)
